OPERA 2.9 data: logP (octanol/water) values

logP is the log10 of the octanol-water partition coefficient; higher is more lipophilic.

compound,log Kow
CCCCC(CC)COC(=O)CS (centres undefined),4.7
CC(=O)OCCN(CCC#N)c1ccc(N=Nc2c(Cl)cc([N+](=O)[O-])cc2Cl)cc1,4.1
O=c1c2ccccc2[nH]c2cc3c(=O)c4ccccc4[nH]c3cc12,2.2
CCCCOc1cccc2ccccc12,5.24
COC(=O)c1cc(CO)nn1-c1ncccc1Cl,3.143
C[SiH]1O[SiH](C)O[SiH](C)O[SiH](C)O[SiH](C)O1 (centres undefined),6.33
C[C@]1(COC(=O)C2CC2)[C@@H]2C[C@H](O)[C@@]3(C)Oc4cc(-c5cccnc5)oc(=O)c4[C@H](O)[C@@H]3[C@@]2(C)CC[C@@H]1OC(=O)C1CC1,3.45
CCCCCCCCCCCCCCCCCCP(=O)(O)OC,7.7
O=C(NCCCCCCNC(=O)NCc1ccccc1)NCc1ccccc1,2.4
O=Cc1ccccc1C=O,0.75
CCC[Si](OCC)(OCC)OCC,3.1
COc1cc2nc(N(C)CCCNC(=O)C3CCCO3)nc(N)c2cc1OC (centres undefined),1.4
CO[Si](CCCNC(=O)OCCCCCCOC(=O)NCCC[Si](OC)(OC)OC)(OC)OC,5.1
CC1(CCl)CO1 (centres undefined),0.81
C=CC(=O)OCC1CCCO1 (centres undefined),0.81
CCCCOCCOC(=O)c1ccccc1,3.77
NC1CCCCC1N (centres undefined),-0.46
CCN(CC)c1nc(Nc2ccc(/C=C/c3ccc(Nc4nc(Nc5cc(S(=O)(=O)[O-])ccc5S(=O)(=O)[O-])nc(N(CC)CC)n4)cc3S(=O)(=O)[O-])c(S(=O)(=O)[O-])c2)nc(Nc2cc(S(=O)(=O)[O-])ccc2S(=O)(=O)[O-])n1.[Na+].[Na+].[Na+].[Na+].[Na+].[Na+],-1.97
OC[C@H]1O[C@H](O[C@]2(CCl)O[C@H](CCl)[C@@H](O)[C@@H]2O)[C@H](O)[C@@H](O)[C@H]1Cl,-0.51
ClC1=C(Cl)C(Cl)C(Cl)C(Cl)C1 (centres undefined),3.95
Brc1ccc(Oc2ccc(Br)c(Br)c2)cc1,5.52
COc1ccc(C(=O)Nc2ccccc2)cc1N,2.08
CC(Cl)=CCCl,2.84
CCOc1ccc(NC(=O)NN)cc1,0.53
C=Cc1ccc(C=C)cc1,4.18
COC1(C(F)(C(F)(F)F)C(F)(F)F)OC(F)(C(F)(C(F)(F)F)C(F)(F)F)C(F)(F)C1(F)F (centres undefined),6.6
Br.CC(=O)NC1CCc2nc(N)sc2C1 (centres undefined),-0.041
Nc1c(/N=N/c2ccc([N+](=O)[O-])cc2)c(S(=O)(=O)[O-])cc2cc(S(=O)(=O)[O-])c(/N=N/c3ccc(S(=O)(=O)Nc4ccc(/N=N/c5ccc(O)cc5O)cc4)cc3)c(O)c12.[Na+].[Na+],-1.754
CC(C(=O)c1ccc(Cl)cc1)C1CC1 (centres undefined),3.9
C[C@]12CCC(=O)C=C1CC[C@H]1[C@@H]3CC[C@](O)(C(=O)CO)[C@@]3(C)CC(=O)[C@@]12F,1.37
OC[C@H]1OC(n2cnc3c(=S)cc[nH]c32)[C@H](O)[C@@H]1O (stereo in doubt),-0.6
C[N+](C)(C)CCOC(=O)C1N=N1.[Br-],-3.52
CCN(CC)CCN1c2ccccc2Sc2ccccc21,5.94
CC(C)=COC(=O)c1ccccc1C,4.49
Nc1nc(=O)c2c(CCc3ccc(C(=O)O)cc3)c[nH]c2[nH]1,1.5
O=C(Nc1ccccc1)NS(=O)(=O)Nc1ccccc1,1.666
CC(C)c1ccc2c(c1)OCC(=O)CO2,2.46

Excerpt, the final 3 entries:

compound	log Kow
Nc1nc(=O)c2c(CCc3ccc(C(=O)O)cc3)c[nH]c2[nH]1	1.5
O=C(Nc1ccccc1)NS(=O)(=O)Nc1ccccc1	1.666
CC(C)c1ccc2c(c1)OCC(=O)CO2	2.46

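The numbers are reported measurements, compiled and curated for the OPERA QSAR suite. A listed value is a point estimate from one report or more. Method and conditions are not stated for these values. The measured form (salt, isomer or mixture) is not always the one drawn. Some entries may be limits or estimates that an upstream database listed as plain numbers.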

From the experimental data distributed with OPERA 2.9.